# According to US9506926B2, “Molecular predictors of therapeutic response to specific anti-cancer agents” (The Regents of the University of California, priority 2011, dated 2016):
# Test system: breast cancer cell lines
# Experiment: Cell growth inhibition assay (Cell Titer Glo, 72 h drug exposure, GI50) across a breast cancer cell line panel, with subtype, copy number and growth rate association analysis
# Type: cell-based, human
# Details: compounds excluded from further analysis
substance,measurement,value
cetuximab,Response of the cell line panel as a whole,almost none of the cell lines in the panel responded strongly
